Values of other authors in patent US20250368645A1, “BETA CARBOLINE ANALOGUES AS SELECTIVE AND BIASED KAPPA OPIOID RECEPTORS AGONISTS FOR TREATING VARIOUS ASSOCIATED PATHOPHYSIOLOGICAL CONDITIONS” (COUNCIL OF SCIENTIFIC AND INDUSTRIAL RESEARCH, priority 2022, published 2025).

Test system: KOR
Conditions: literature background; cited from earlier work

CN(C(=O)Cc1ccc(Cl)c(Cl)c1)[C@H](CN1CCCC1)c1ccccc1
potency relative to U-50,488: 146 fold
